One series deals with THP-1 cells. The series is described as follows: Inhibitory activity against THP-1 cells. It is filed as cell-based. The note with it: THP-1 cells (FLT3 wild type AML); data not shown.
For a further series, the system named is Kasumi-1 cells. In words: Synergy of I-24/1481 with venetoclax in Kasumi-1 cells (MTS). The note with it: Homo sapiens, denominator of the dose ratio, read-out: concentration giving the IC50 response when administered alone. The class given is cell-based. The protocol:
Data were analyzed by Prism v 8. […] FIG. 15C depicts the relevant heat maps; data in the upper heat maps indicates the Bliss Scores, and the lower heat map indicates the individual data points for the various dose response curves. Methods: Day 0: Cell Line Plating in growth media recommended by ATCC using Tecan Fluent in 96 well plate (Eppendorf 0030730011); Day 1: Drug Addition. Venetoclax obtained from Selleckchem (S8048); Day 1→4: Incubate with Drug for 72 Hrs at 37 C, 5% CO2; Day 5: Add 20% original volume MTS (Promega G5440) and incubate for 4 Hrs.; Add 25% original volume 10% SDS (Invitrogen 24730-020) to lyse cells and stop conversion of MTS to formazan. Read out is colorimetric at 490 nm using a BioTek Synergy Neo Plate Reader.

Series [1] has as its system normal cord blood CD34+ cells. The note with it: 1 μM, 10 days.

The values that follow come from patent US11542261B2, “Substituted Imidazo[1,2-a]-pyridines as IRAK 1/4 and FLT3 inhibitors” (CHILDREN'S HOSPITAL MEDICAL CENTER, priority 2016, dated 2023).

Regarding `COc1cc2ncc(-c3cccc(NC4CCNC4)n3)n2cc1-c1cccnc1` (stereo not drawn) [Compound I-22, 6-(7-methoxy-6-(pyridin-3-yl)imidazo[1,2-a]pyridin-3-yl)-N-(pyrrolidin-3-yl)pyridin-2-amine], the “concentration without any inhibitory activity” value in the series with THP-1 cells was greater than 10 µM. Consider `COc1cc2ncc(-c3cccc(NC4CCNC4)n3)n2cc1-c1cnn(C)c1` (stereo not drawn) [Compound I-24, 6-(7-methoxy-6-(1-methyl-1H-pyrazol-4-yl)imidazo[1,2-a]pyridin-3-yl)-N-(pyrrolidin-3-yl)pyridin-2-amine], for which the IC50 in the series on Kasumi-1 cells worked out at 143 nM. The “colony formation of normal CD34+ cells” value in series [1] is given as “inhibited colony formation of normal CD34+ cells”.
